From ChEMBL document CHEMBL1800061 (J Med Chem, 2010) come the findings set out here.

The chains behind the UniProt entries cited, without tags or fusion partners.
UniProt P50750, whole entry: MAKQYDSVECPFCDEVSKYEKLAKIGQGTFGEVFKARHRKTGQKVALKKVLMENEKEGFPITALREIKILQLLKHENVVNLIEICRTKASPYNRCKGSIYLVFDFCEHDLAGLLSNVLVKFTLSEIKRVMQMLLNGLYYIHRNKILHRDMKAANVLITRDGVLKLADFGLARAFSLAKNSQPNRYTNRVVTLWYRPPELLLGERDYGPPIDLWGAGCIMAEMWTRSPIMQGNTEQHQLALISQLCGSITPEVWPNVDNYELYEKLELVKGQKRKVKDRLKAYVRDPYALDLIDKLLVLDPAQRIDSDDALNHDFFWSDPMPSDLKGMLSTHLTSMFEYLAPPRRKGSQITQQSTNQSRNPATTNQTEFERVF

This assay addresses CDK9/cyclin T1 (Homo sapiens, UniProt P50750). The assay is described as follows: Inhibition of CDK9/cyclinT assessed as amount of ATP released by luciferase activity based PKLight assay. It is filed as protein-complex assay.

On to `CC(C)c1cnn2c(NCc3ccccc3)cc(N[C@@H](CO)[C@H](O)CO)nc12`, for which the IC50 was 90 nM.

As usually defined, the IC50 is the point on the concentration scale where inhibition reaches its midpoint.
